Laboratory results from patent publication US8741932B2, “Imidazopyridine derivatives” (Piramal Enterprises Limited, priority 2009, dated 2014).

Experiments:
[1] = tested on: PC3
[2] = tested on: A2780; test: Cytotoxicity assay (propidium iodide), A2780; type: cell-based; conditions: A2780 (C3a, ovarian); 48 hours
[3] = tested on: A549; test: Cytotoxicity assay (propidium iodide), A549; type: cell-based; conditions: A549 (C1a, lung); 48 hours
[4] = tested on: HT29; test: Cytotoxicity assay (propidium iodide), HT29; type: cell-based; conditions: HT29 (C4a, colon); 48 hours
[5] = tested on: H460; test: Cytotoxicity assay (propidium iodide), H460; type: cell-based; conditions: H460 (C1b, lung); 48 hours
[6] = tested on: MDA MB 231; test: Cytotoxicity assay (propidium iodide), MDA MB 231; type: cell-based; conditions: MDA MB 231 (C6a, breast); 48 hours

Measured: IC50

N-methyl-1-phenyl-N′-((6-pyridin-3-yl) imidazo[1,2-a]pyridine-3-yl) methylene)benzenesulfonohydrazide [Example 28]
> 5 µM: [1] | [2] | [3] | [4] | [5] | [6]
